Earlier results in patent US6160011A (priority 1998, dated 2000).

Details: area under the plasma concentration-time profile, R- vs S-enantiomer, healthy male volunteers, single oral dose of racemate; cited from earlier work

## C[C@](O)(CS(=O)(=O)c1ccc(F)cc1)C(=O)Nc1ccc(C#N)c(C(F)(F)F)c1 [R-Bicalutamide, reference compound]
  AUC relative to S-Casodex: 130 fold
